The results in this text go back to patent US7388010B2, “Quinoxalinone derivatives” (Banyu Pharmaceutical Co., Ltd., priority 2002, dated 2008).

Chains of the proteins cited; added tags and fusions are not shown.
UniProt P11802, whole entry: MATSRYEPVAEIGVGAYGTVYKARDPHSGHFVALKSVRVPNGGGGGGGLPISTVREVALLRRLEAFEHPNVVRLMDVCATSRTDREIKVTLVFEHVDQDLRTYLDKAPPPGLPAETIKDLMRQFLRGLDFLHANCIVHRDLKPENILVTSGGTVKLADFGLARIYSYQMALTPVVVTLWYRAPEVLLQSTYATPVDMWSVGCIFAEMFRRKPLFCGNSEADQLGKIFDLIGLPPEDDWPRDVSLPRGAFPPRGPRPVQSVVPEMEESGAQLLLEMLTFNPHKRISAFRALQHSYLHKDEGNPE
UniProt P30279, whole entry partner: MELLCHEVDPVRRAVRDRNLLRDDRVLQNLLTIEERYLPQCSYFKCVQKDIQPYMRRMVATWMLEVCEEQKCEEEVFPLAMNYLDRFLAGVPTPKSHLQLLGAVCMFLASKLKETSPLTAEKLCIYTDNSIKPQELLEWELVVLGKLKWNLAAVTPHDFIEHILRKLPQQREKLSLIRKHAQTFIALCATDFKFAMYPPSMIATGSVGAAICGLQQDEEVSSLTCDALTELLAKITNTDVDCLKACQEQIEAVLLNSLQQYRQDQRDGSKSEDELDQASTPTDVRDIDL

For one assay, the target named is cyclin D2-Cdk4 (Homo sapiens, UniProt P11802). The experiment in a line: Cyclin D2-Cdk4 inhibitory activity (33P-ATP phosphorylation of RB peptide substrate). Type of assay: biochemical. Conditions: read-out: IC50 against cyclin D2-Cdk4 activity; 50 μM ATP, 100 μM substrate peptide, 30° C., 45 minutes; tested form: HCl. The text has this:
cDNAs of Cdk4 and its activating factor cyclin D2 were each introduced into a baculovirus expression vector to obtain a recombinant baculovirus; it was then co-infected to an insect cell Sf9 to highly express active cyclin D2/Cdk4 complexes. The cells were recovered, solubilized and the enzymes were purified by HPLC column chromatography (The Embo Journal, vol. 15, 7060-7069 (1996)).
In the determination of cyclin D2-Cdk4 activity, a synthetic peptide Arg-Pro-Pro-Thr-Leu-Ser-Pro-Ile-Pro-His-Ile-Pro-Arg corresponding to the amino acid number 775-787 of RB protein was used as a substrate [The EMBO Journal, vol. 15, 7060-7069 (1996)].
The reaction was carried out according to a method partially modifying Kitagawa et al. (Oncogene, vol. 7, 1067-1074 (1992)). […] The peptide substrate was adsorbed on a P81 paper filter in a 96-well plate, and the plate was washed several times with 75 mM phosphate buffer, and then its radioactivity was measured by a liquid scintillation counter. […]
The compounds in the following Working Examples were chosen as typical compounds of the present invention, and IC50 values against cyclin D2-Cdk4 activity of those compounds were determined.

Another assay relates to HCT116 cells. The experiment in a line: Inhibitory activity of BrdU uptake in HCT116 cells (Cell Proliferation ELISA, chemiluminescence). The conditions noted are these: read-out: IC50 on BrdU uptake; HCT116 cells derived from human colon cancer, cultured with compound for 12 hours, BrdU pulse 1 hour; tested form: HCl. As to the method: Growing cells perform DNA duplication in the S phase of the cell cycle, and divide into daughter cells in the M phase via the G2 phase. As an index for the cell growth, there is a method to determine the amount of BrdU taken into newly synthesized DNAs in the DNA duplicating cells ((J. Immunol Methods, vol. 82, p. 169-179 (1985); J. Immunolog. Methods, vol. 106, p. 95-100 (1988); Cytometry, vol. 14, p. 640-648 (1993)). Inhibitory activities of BrdU uptake was determined in order to investigate the effect of the compounds of the present invention against cancer cells.
HCT116 cells derived from human colon cancer were cultured in Dulbecco's modified Eagle's medium containing 10% fetal bovine serum at 37° C. in the presence of 5% carbon dioxide under an atmosphere of saturated steam. […]
Quantitative determination of BrdU uptake was performed using the Cell Proliferation ELISA, BrdU (chemiluminescence)(Roche Diagnostics). […] The cells were incubated at room temperature for 10 minutes and chemical luminescence was determined with a luminometer.
As typical compounds of the present invention, the compounds [11], [12], [39], [51], [71], [83], [85], [134] and [141] were chosen, and IC50 values of these compounds on BrdU uptake were determined.
(An ELISA detects its analyte on a solid surface through an enzyme-linked reagent.)

With `Cc1cc2c3nc(c(=O)[nH]c3c1)-c1cccc3c(=O)n([nH]c13)CCN1CC[C@@H](C1)O2`, the results for the IC50 on cyclin D2-Cdk4 and with HCT116 cells were 0.026 µM and 0.02 µM, respectively.

The term IC50 denotes the concentration at which inhibition is half-maximal.
